Laboratory results as given in patent US11149066B2, “Thrombospondin 1-binding peptide” (DAIICHI SANKYO COMPANY, LIMITED, priority 2016, dated 2021).

Amino acid sequences for entries named in this document (tags omitted). Residues count along the entry.
UniProt P07996, 19-1170 limits assumed: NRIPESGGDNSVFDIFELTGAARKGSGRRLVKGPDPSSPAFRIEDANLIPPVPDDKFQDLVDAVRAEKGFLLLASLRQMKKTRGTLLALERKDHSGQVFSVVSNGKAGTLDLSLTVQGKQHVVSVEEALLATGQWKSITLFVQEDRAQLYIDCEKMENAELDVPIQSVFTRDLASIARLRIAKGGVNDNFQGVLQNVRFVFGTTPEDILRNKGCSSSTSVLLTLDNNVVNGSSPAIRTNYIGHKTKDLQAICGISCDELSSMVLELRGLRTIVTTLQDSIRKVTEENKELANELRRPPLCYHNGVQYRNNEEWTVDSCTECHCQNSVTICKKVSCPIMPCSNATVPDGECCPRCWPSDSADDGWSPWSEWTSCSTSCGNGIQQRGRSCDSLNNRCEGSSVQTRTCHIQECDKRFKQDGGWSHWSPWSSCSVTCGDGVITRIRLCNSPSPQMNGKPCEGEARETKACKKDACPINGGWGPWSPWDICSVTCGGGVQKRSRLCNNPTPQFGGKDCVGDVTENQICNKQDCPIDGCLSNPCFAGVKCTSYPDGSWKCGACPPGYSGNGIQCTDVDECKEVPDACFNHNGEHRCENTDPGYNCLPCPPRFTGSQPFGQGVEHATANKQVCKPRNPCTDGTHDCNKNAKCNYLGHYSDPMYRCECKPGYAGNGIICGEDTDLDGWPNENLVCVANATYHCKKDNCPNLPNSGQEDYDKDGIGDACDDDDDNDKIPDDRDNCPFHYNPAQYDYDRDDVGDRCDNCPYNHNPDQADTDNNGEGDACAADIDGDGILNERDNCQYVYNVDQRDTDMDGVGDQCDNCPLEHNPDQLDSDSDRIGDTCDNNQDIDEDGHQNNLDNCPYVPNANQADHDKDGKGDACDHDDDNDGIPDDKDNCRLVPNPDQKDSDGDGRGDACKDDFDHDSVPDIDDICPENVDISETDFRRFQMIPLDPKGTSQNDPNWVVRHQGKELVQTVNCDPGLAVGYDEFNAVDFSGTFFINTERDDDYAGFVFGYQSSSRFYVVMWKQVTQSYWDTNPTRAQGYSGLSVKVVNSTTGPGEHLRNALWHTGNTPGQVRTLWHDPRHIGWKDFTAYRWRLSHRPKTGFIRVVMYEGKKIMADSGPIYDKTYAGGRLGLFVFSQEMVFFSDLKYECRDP

Target: human TSP1 (Homo sapiens, UniProt P07996)
Test: Cell adhesion inhibition assay (HUVEC adhesion to TSP1-coated plate)
Details: read-out: cell adhesion inhibition (Table 4), tested form: TFA
Protocol: As referred to herein, the TSP1 inhibitory activity refers to the activity to inhibit one or more effects of TSP1, including angiostatic effect. The TSP1 inhibitory activity is measured by a cell adhesion inhibition assay using human TSP1 and vascular endothelial cells as described hereinbelow in the Examples section. In this assay, when the 50% inhibitory concentration (IC5O) of a test substance is 200 nM or less, the test substance is determined to have TSP1 inhibitory activity.
(Test Example 1) Cell Adhesion Inhibition Assay
I. Materials and Reagents
96 well Non-treated White with clear bottom (Coster, 3632)
BrightMax adhesive sealing films (EXCEL Scientific, WT50) […]
To maintain HUVECs, EGM2-MV and a collagen coated dish were used (the cells were ceased to be used after 10th or 1 lth passage since the cell proliferation rate declined at this stage). […] The cells were resuspended in a DMEM buffer, counted for cell number, and diluted to 10000 cells/50 μL. […]
After cell adhesion was confirmed, the culture medium was completely removed by an aspirator, and 100 μL/well of DMEM/0.5% BSA was gently dispensed. […] Fluorescence emission was detected using EnVision Xcite Multilabel Reader (produced by Perkin Elmer).
On the basis of the measured fluorescence values, the IC50 values (nM) of the different macrocyclic polypeptides for inhibition of cell adhesion were calculated.

IC50: 10.7 nM
Structure (SMILES): CCCC[C@@H]1NC(=O)[C@H](Cc2c[nH]c3ccccc23)NC(=O)[C@H](CC(=O)O)NC(=O)[C@H](CCCNC(=N)N)NC(=O)CNC(=O)[C@H](CO)NC(=O)[C@H]([C@@H](C)CC)NC(=O)[C@H](Cc2ccc3ccccc3c2)NC(=O)CS(=O)(=O)C[C@@H](C(N)=O)NC(=O)[C@H](C(C)C)NC(=O)[C@H](Cc2c[nH]c3ccccc23)NC(=O)[C@H](CCCCN)NC1=O
